For one assay, the target named is D(2) dopamine receptor (Homo sapiens, UniProt P14416).
Assay [1] deals with Alpha-2A adrenergic receptor (Homo sapiens, UniProt P08913).
The target of assay [2] is Alpha-2C adrenergic receptor (Homo sapiens, UniProt P18825).
Assay [3] addresses 5-hydroxytryptamine receptor 2A (Homo sapiens, UniProt P28223).

Protein sequences, listed by entry. Tags and fused reporters are not part of them.
UniProt P14416, whole entry: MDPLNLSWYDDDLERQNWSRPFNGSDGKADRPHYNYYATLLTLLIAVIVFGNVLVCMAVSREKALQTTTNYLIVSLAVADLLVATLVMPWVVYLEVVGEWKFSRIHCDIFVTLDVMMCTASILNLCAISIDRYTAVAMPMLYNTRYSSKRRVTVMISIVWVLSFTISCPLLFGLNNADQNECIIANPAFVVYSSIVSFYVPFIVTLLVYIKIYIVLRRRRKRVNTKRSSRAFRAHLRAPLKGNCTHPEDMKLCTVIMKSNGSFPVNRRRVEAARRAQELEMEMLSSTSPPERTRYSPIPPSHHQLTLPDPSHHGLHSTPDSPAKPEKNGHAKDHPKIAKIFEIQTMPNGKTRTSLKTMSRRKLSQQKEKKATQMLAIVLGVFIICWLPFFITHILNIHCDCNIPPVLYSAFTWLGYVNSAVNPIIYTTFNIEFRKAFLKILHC
UniProt P08913, whole entry: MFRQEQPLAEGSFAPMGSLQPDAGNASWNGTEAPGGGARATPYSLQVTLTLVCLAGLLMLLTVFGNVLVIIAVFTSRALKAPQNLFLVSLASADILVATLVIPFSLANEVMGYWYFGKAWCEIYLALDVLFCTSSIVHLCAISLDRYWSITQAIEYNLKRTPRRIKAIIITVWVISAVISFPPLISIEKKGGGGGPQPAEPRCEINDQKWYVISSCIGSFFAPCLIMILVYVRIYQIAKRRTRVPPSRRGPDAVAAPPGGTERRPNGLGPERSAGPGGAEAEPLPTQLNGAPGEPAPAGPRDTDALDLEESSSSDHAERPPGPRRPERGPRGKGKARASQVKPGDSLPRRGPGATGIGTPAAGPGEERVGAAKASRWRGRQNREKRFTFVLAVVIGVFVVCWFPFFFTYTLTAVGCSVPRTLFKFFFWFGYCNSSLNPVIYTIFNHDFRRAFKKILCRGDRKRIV
UniProt P18825, whole entry: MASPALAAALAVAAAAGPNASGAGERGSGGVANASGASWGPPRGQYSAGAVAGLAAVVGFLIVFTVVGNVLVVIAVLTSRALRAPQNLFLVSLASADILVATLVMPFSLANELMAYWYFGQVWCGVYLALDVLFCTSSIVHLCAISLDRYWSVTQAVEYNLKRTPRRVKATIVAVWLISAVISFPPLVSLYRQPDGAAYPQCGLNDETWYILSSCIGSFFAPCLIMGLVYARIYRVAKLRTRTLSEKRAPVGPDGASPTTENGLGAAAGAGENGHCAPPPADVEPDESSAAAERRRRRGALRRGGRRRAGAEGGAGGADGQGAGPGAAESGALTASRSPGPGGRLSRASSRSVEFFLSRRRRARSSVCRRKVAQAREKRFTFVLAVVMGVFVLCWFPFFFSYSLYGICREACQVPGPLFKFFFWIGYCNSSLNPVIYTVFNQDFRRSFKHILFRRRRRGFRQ
UniProt P28223, whole entry: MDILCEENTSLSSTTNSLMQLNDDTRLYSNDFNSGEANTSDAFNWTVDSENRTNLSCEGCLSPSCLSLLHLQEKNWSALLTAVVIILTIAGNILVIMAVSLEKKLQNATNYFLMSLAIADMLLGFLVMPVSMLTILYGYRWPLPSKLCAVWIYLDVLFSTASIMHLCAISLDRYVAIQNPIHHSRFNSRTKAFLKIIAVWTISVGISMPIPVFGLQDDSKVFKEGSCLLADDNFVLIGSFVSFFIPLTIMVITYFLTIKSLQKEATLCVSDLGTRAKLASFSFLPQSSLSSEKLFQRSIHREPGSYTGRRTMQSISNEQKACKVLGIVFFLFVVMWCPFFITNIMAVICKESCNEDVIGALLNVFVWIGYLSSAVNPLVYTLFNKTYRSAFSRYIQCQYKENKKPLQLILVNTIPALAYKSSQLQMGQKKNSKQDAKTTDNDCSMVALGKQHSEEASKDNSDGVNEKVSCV

The structures appear in SMILES notation. pKi: −log10 of the molar value.

Usually pKi stands for the negative decadic logarithm of the Ki, by convention in mol/L. Read a high pKi as a small Ki.

Consider `Oc1ccc2[nH]cc(CCCCN3CC=C(c4ccccc4)CC3)c2c1`, for which the negative-log Ki (pKi) on D(2) dopamine receptor is 8.55.
As to `CC(C)C[C@H]1C(=O)N2CCC[C@H]2[C@]2(O)O[C@](NC(=O)[C@@H]3C=C4c5cccc6[nH]c(Br)c(c56)C[C@H]4N(C)C3)(C(C)C)C(=O)N12` [Bromocriptine+ (GTP+)], the negative logarithm of the Ki (pKi) in assay [1] was 7.96; in assay [2], 7.55.
Regarding `CCCN1CCC[C@@H]2Cc3n[nH]cc3C[C@H]21` [NSC_54562], the pKi in assay [3], in assay [1] and in assay [2] was under 5.00 in each case.

The values are drawn from BindingDB's records for doi:10.1124/jpet.102.039867 (Institut De Recherches Servier, 2002).
